## Yeast mating assay B: variants of the scFv Ab-14

The target is the same throughout: PDVDLGDISGINAS, from the HR2 region of SARS-CoV-2 spike.

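The starting antibody came from a phage panning campaign against this peptide. Designed CDR sequences, proposed from the first random library and measured here. Several design methods are mixed in this list. AlphaSeq pools MATa yeast showing the antibodies with MATalpha yeast showing the peptide. Pairs that bind mate more often; barcode pairs of the diploids are counted by sequencing. The ratio of observed to expected reads was calibrated, replicate by replicate, on BCL2-family standards whose Kd was known from biolayer interferometry. Mating was done six times.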

Each scFv is VH, a 15-residue (Gly4Ser)3 linker, VL, as in the parent Ab-14, and differs from it in the CDRs of the heavy chain only.
VH: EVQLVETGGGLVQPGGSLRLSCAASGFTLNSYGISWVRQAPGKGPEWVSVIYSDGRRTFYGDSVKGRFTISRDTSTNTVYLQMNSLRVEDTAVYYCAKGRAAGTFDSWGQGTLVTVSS
VL: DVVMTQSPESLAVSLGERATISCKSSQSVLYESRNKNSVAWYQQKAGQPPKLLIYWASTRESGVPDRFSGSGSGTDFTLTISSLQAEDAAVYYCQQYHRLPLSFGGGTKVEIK

The parent's heavy chain CDRs are GFTLNSYGIS, VIYSDGRRTFYGDSVK, GRAAGTFDS; each variant's own CDRs replace them letter for letter. Numbers give log10(Kd / nM), so 0 is 1 nM and 3 is 1 µM. Smaller is tighter. Replicates are averaged; those with no signal do not enter the mean. Where no diploid with the target was found in any replicate, the entry reads "nd": below detection, most likely a poor binder, though not proof of it.

CDR-H1 | CDR-H2 | CDR-H3 | log10 Kd (nM), mean | replicates with signal | control signals
GFNLNEYGIS | VIYADGRRTFYADSVK | GQTAGTFDM | -0.47 | 6 of 6 | 1 of 18
GFDLNEYGIS | VIYADGVRTFYADDVK | GEVAGTFDL | -0.46 | 6 of 6 | 0 of 18
GFDLNEYGIS | VIYADGRRTFYADSVK | GQTGGTFDE | -0.34 | 6 of 6 | 0 of 18
GFDVDEYGIS | VIYADGKRSMYANSVK | GGIGGMFFQ | 2.27 | 1 of 6 | 0 of 18
GFTLNSYGIS | VIYSDGRRTFYIDDVK | GKAAGTFDS | 1.37 | 6 of 6 | 0 of 18
KFTLNEYGIS | VIYSDGRRTFYQDSVK | GRCAGTFDS | nd | 0 of 6 | 0 of 18
KFNLNSYGIS | VIYSDGRRTFYIDSVK | GRTAGTFDS | nd | 0 of 6 | 0 of 18
GFTLDSYGPS | VIYSDGRRTFYGDSVK | GRAAGTVLS | nd | 0 of 6 | 0 of 18
GFDVDEQGIS | VIYADGRRSQYANSVK | GAIGGTFDM | 2.32 | 2 of 6 | 1 of 18
GFTLNQYGIS | VIYSDGRETFYSDSVK | GRSWGFFDS | nd | 0 of 6 | 0 of 18
GFDLDEYGIS | VIYADGSRTAYSDSVK | GNNAGTFDV | -0.38 | 6 of 6 | 0 of 18
GFQLDTYGIS | VIYSDGRRTAYGDSVK | GRAAGDFDM | nd | 0 of 6 | 0 of 18
GFSLNSYGIS | VIYSDGRRTFYGDSVK | GRAYGTKDW | 1.95 | 1 of 6 | 0 of 18
GFDLDEYGIS | VIYADGQRTAYADSVK | GEVAGTFDL | -1.35 | 3 of 6 | 0 of 18
GFDIEEYGIS | VIYADGIRQAYKDKVK | GWNDGTFSV | nd | 0 of 6 | 0 of 18
GFKLNSYGIS | VIYSDGRRTFYGDSVK | GRQAGTFDS | 0.66 | 6 of 6 | 0 of 18
GFNLEEYGIS | VIYADGMRTAYADKVK | GGLDVQEGY | nd | 0 of 6 | 1 of 18
GFRLNEYGIS | VIYSDGRRTFYGDSVK | GRAAGTFDT | 0.49 | 6 of 6 | 1 of 18
GFDLNEYGIS | VIYADGMRTAYADDVK | GNVAGTFDV | -0.57 | 6 of 6 | 0 of 18
GMTLNSYGIS | VIYADGRRTFYGDSVK | GRAAGTFDS | 0.66 | 12 of 12 | 0 of 36
GFDIEEYGIS | VIYADGIRQAYKDKVK | GWDVGRFSV | 3.14 | 2 of 6 | 2 of 18
GFTLNSYGIS | VIYSDGRRTFYGDDVK | GRAAGTDDS | nd | 0 of 6 | 0 of 18
GFTLDEYGIS | VIYADGRRTFYADSVK | GQVAGTFDQ | -0.42 | 6 of 6 | 1 of 18
GFVLNEYGIS | VIYSDGRRTFYGDSVK | GKTAGTFDV | -0.11 | 4 of 6 | 0 of 18
GFDIEEYGIS | VIYADGMRSSYSQSVK | GEYSGNIYV | 1.64 | 2 of 6 | 1 of 18
GEDLNSYGIS | VIYSDGRRTFYADSVK | GRTAGTFDS | 0.87 | 6 of 6 | 0 of 18
GFTLNEYGIP | VIYSDGRRTFYDDSVK | GRVAGTFDS | -0.35 | 6 of 6 | 0 of 18
GFQLNEYGIS | VIYADGMRSSYQDSVK | GSNSSSFDV | 2.08 | 1 of 6 | 1 of 18
GFSLNSYGIS | VIYSDGRRTFYTDNVK | GNAAGTFDS | -0.04 | 6 of 6 | 0 of 18
GFTLNDYGIS | VIYSDGRRTFYKDSVK | GRTAGTFDS | -0.01 | 6 of 6 | 0 of 18
GFTLNSYGIS | VIYSDGARTAYGDKVK | GRTAGDFDS | nd | 0 of 6 | 0 of 18
GFSLNEYGIS | VIYSDGWRTFYSDSVK | GRTAGTFDS | 0.87 | 6 of 6 | 0 of 18
GFTLNSYGIS | VIYSDGRRTFYSDSVK | GRLAGTFDR | 1.72 | 4 of 6 | 0 of 18
GFDLNEYGIS | VIYADGMRTAYADDVK | GQTAGTFDV | -0.28 | 6 of 6 | 0 of 18
GFDLNEYGIS | VIYADGRRTFYSDSVK | GNAAGTFDS | 0.24 | 6 of 6 | 0 of 18
GEDLEEYGIS | VIYADGMRQYYANSVK | GTSNDFDML | nd | 0 of 6 | 0 of 18
GFQLDEFGIS | VIYADGKRSSYVDDVK | GELTGGFKV | nd | 0 of 6 | 0 of 18
GRTLNSYGIS | VIYSDGRRTFYGDSVK | GRAAGTFDS | nd | 0 of 6 | 0 of 18
GNTLNSYGIS | VIYSDGRRTFYGDSHK | GRAAVTKDS | nd | 0 of 24 | 2 of 72
FFKLEDFGIS | VIYADGRRTAYVDDFK | GEIAGTFDV | -0.53 | 1 of 6 | 0 of 18
GFTLNSYGIS | VIYSDVRRTWYGDSVK | GRPAGTFDS | nd | 0 of 6 | 0 of 18
GFTLSSYGIS | VIYSDGRRTFYGDSVK | GRAAGTFRS | nd | 0 of 6 | 0 of 18
GFDLNEYGIS | VIYADGMRTAYSDSVK | GEIAGTFDI | -0.17 | 6 of 6 | 1 of 18
GFDLNEYGIS | VIYADGRRTFYSDSVK | GEAAGTFDI | -0.54 | 6 of 6 | 0 of 18
GFSLNSYGIS | VIYSDGRRTFYVDDVK | GRTAGTFDS | 0.64 | 6 of 6 | 0 of 18
GFDLNSYGIS | VIYSDGRRTFYGDRVK | GKTAGTFDS | 0.73 | 6 of 6 | 0 of 18
EFTLNDYGIS | VIYSAGRRTFYGDSVK | GRAALTFIS | nd | 0 of 6 | 0 of 18
GFTLNSYGIS | VIYSDGMRTMYGDSVK | GRAAGTFDS | nd | 0 of 6 | 0 of 18
GFNLNSYGIS | VIYSDGRRTFYGDRVK | GRTAGTFDS | 1.14 | 6 of 6 | 0 of 18
GFDLNEYGIS | VIYADGMRTAYADSVK | GGEAGTFDV | -0.42 | 6 of 6 | 0 of 18
GFSLNSYGIS | VIYSDGRRTFYGDSVK | GSTAGTFDS | 0.52 | 6 of 6 | 2 of 18
GFQLDEVGIS | VIYADGIRTAYKSKVK | GGNGDSFDI | 2.80 | 3 of 6 | 0 of 18
GFTLNSYGIS | VIYSDGRRTFYTDSVK | GMEAGTFDS | -1.25 | 4 of 6 | 0 of 18
GFALNEYGIS | VIYADGSRSAYTDSVK | GVHNGDVNI | nd | 0 of 6 | 0 of 18
GFTLNSYGIS | VIYSDGRRTFYGDSVK | GRAAGTSDF | nd | 0 of 6 | 0 of 18
GFTLNSYGIS | VIYSDGRRTFYADDVK | GEAAGTFDS | 0.47 | 6 of 6 | 2 of 18
GFTLNEYGIS | VIYSDGIRTFYGDSVK | GRAAGTFDS | 0.44 | 6 of 6 | 0 of 18
GFDLNEYGIS | VIYADGKRTAYADSVK | GTNAGTFDI | -0.22 | 6 of 6 | 0 of 18
GFGLNEYGIS | VIYSDGRRTFYGDSVK | GHAAGTFDS | 0.40 | 6 of 6 | 0 of 18
GFSLNQYGIS | VIYSDGRRTFYSDSVK | GRLAGTFDT | 0.30 | 5 of 6 | 0 of 18
GFSLNDYGIS | VIYSDGRRTFYDDRVK | GRTAGTFDS | 0.07 | 6 of 6 | 0 of 18

Repeated from above, the 5 best binders with a signal in all replicates:

CDR-H1,CDR-H2,CDR-H3,"log10 Kd (nM), mean",replicates with signal,control signals
GFDLNEYGIS,VIYADGMRTAYADDVK,GNVAGTFDV,-0.57,6 of 6,0 of 18
GFDLNEYGIS,VIYADGRRTFYSDSVK,GEAAGTFDI,-0.54,6 of 6,0 of 18
GFNLNEYGIS,VIYADGRRTFYADSVK,GQTAGTFDM,-0.47,6 of 6,1 of 18
GFDLNEYGIS,VIYADGVRTFYADDVK,GEVAGTFDL,-0.46,6 of 6,0 of 18
GFTLDEYGIS,VIYADGRRTFYADSVK,GQVAGTFDQ,-0.42,6 of 6,1 of 18

The authors' rule: three or more of the six replicates give a measured affinity, fewer mean a poor binder. A sequence that the file lists under several names has all its replicates pooled. Empty control strains, which show no peptide, gave a signal in 1% of pairings with all heavy chain designs; the median was 2.08 and 95% of these signals were weaker than 0.84. No background was subtracted. The control count says in how many pairings with the empty strains this scFv gave a signal. Of ten entries with the parent sequence, four were seen in most replicates (averages 0.34 to 2.37), three in one and three in none, so single entries are noisy. Values of this round are not directly comparable with the first-round values of the same sequences.

Data: MIT Lincoln Laboratory AlphaSeq set, Li et al. 2023, doi:10.1038/s41467-023-39022-2, as distributed in FLAb.